From patent US4950658A, “Method of medical treatment of Alzheimer's disease” (priority 1988, dated 1990)

Columns and labels:
brain cholinesterase = assay: Cholinesterase activity in rat after intramuscular inhibitor; assay type: in vivo; conditions: at the doses used
acetylcholine = assay: Acetylcholine levels in rat brain after one or two consecutive administrations; assay type: in vivo
Description: The second administration of the drugs was timed so as to allow acetylcholine levels to return to approximately (+12%) control levels and the concentration of the drug was the highest that would allow 100% survival.

CNC(=O)Oc1ccc2c(c1)[C@]1(C)CCN(C)[C@@H]1N2C [physostigmine]
peak cholinesterase inhibition (brain cholinesterase): 65%
time of peak cholinesterase inhibition (brain cholinesterase): 15 min
time at which acetylcholine returned practically to control levels (acetylcholine; first administration): 60 min
time at which the peak value of acetylcholine was reached (acetylcholine; first administration): 15 min
increase in acetylcholine levels after the first administration (acetylcholine; rat brain, first of two consecutive administrations): 70%
duration of the acetylcholine increase after the second administration (acetylcholine; second consecutive administration): 60 min
increase in acetylcholine after the second administration (acetylcholine; second consecutive administration, highest dose allowing 100% survival): 75%
